The target of this assay is human ghrelin receptor (GHS-R1a) (human) (UniProt Q92847). Put plainly: cell-based or functional assay.

Protein sequences, listed by entry. Tags and fused reporters are not part of them.
UniProt Q92847, whole entry: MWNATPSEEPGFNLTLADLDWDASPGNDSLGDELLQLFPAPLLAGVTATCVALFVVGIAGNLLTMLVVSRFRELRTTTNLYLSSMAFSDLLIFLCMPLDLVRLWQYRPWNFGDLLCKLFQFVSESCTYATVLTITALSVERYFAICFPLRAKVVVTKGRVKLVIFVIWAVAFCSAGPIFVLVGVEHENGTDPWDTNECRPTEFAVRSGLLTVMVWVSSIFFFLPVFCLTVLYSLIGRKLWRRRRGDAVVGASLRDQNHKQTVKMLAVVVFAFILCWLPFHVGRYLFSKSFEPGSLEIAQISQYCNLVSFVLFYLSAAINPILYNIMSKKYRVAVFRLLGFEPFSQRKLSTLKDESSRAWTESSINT

In turn, ghrelin (peptide) displayed a ghrelin-induced Ca++-release (Fluo4 fluorescence), EC50 of 5 nM.

The record behind these values is patent US20120083520A1.
